What was measured:
[1] = test system: TCC organoids; assay: MTT cell viability (cytotoxicity) assay, TCC organoids; type: cell-based, canine; conditions: 0.01 or 0.1 ug/ml MMC, 48 hours
[2] = test system: healthy colon or ileum organoids; conditions: 0.01 or 0.1 ug/ml MMC, 48 hours

## CO[C@@]12[C@H](COC(N)=O)C3=C(C(=O)C(C)=C(N)C3=O)N1C[C@@H]1N[C@@H]12 [Mitomycin C]
[1]
  cytotoxicity (MTT): not cytotoxic
[2]
  cytotoxicity (MTT): not cytotoxic
